Molecular target: Prolyl hydroxylase EGLN2 (Homo sapiens, UniProt Q96KS0)
Assay: PHD1 Enzyme Assay

The chains behind the UniProt entries cited, without tags or fusion partners.
UniProt Q96KS0, whole entry: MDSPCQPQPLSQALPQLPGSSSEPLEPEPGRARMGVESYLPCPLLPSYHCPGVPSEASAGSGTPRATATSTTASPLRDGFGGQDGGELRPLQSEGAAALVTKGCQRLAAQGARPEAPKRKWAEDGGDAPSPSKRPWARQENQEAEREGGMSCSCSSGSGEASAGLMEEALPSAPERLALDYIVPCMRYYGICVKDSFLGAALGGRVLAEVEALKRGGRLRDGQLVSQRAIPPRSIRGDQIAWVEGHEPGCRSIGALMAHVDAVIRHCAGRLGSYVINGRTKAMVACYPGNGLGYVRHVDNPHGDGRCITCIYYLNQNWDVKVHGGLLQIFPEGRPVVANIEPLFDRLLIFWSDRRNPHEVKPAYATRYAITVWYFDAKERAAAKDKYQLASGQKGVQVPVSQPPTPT

| SMILES | IC50 [nM] |
| --- | --- |
| N#Cc1ccc(-c2ccnc3ncnn23)cc1 [US10287286, Example 38] | 543 |
| [CH3][Na]1[CH2]CC(OC(=O)Nc2cc(-c3ccc(C#N)c(F)c3)n3ncnc3c2)C[CH2]1 [US10287286, Example 197] | 53 |

Source: BindingDB's records for patent US10287286 (Takeda Pharmaceutical, 2019)
